Laboratory results published in paper PMC3281520 (Nature chemical biology, 2012).

Target: T1, ProRS (amino acids 998–1513 of human EPRS) (Homo sapiens, UniProt P07814)
T1 sequence (P07814 998-1512 limits assumed): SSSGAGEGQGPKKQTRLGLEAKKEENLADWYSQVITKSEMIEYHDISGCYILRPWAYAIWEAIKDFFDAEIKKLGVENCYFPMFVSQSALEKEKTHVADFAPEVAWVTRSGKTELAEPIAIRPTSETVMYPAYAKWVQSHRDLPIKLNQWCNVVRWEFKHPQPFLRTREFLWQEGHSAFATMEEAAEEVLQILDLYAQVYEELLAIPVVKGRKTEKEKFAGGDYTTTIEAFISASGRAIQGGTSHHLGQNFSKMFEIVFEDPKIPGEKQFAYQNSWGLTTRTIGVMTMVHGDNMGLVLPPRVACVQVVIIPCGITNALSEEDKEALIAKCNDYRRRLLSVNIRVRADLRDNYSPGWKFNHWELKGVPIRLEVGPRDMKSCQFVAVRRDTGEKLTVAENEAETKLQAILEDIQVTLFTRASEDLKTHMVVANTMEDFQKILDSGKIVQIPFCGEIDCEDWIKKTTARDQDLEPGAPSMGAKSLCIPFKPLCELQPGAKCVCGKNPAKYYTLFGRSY
Test: [3H]-HFol binding to immobilized ProRS
Conditions: Fig. 3a
Summary of the method: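 His6-tagged human EPRS prolyl-tRNA synthetase domain, expressed in E. coli, immobilized on Ni-NTA beads. Beads washed twice in ice-cold buffer; bound counts by scintillation, with beads given tag-free E. coli extract as background.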

O=C(C[C@H]1NCCC[C@@H]1O)Cn1cnc2ccccc2c1=O [FF, febrifugine]
competition of [3H]-HFol binding to ProRS: competed
